Measured values from patent publication US9376387B2 (priority 2013, dated 2016).

The molecules below were run on Peripheral Anionic Site (PAS) of AChE.

Compared with `CC(=O)c1c[n+](Cc2ccccc2C)ccc1CC1Cc2cc(C)c(C)cc2C1=O.[Br-]` (stereo not shown) [Compound 152, 2-[[3-acetyl-1-(o-tolylmethyl)pyridin-1-ium-4-yl]methyl]-5,6-dimethyl-indan-1-one bromide], `COc1cc2c(cc1OC)C(=O)C(Cc1cc[n+](Cc3ccccc3C)cc1Br)C2.[Br-]` (stereo not shown) [Compound 141, 2-[[3-bromo-1-(o-tolylmethyl)pyridin-1-ium-4-yl]methyl]-5,6-dimethoxy-indan-1-one bromide] is higher in “Binding to the PAS measured by propidium iodide displacement” value (“Binding to the PAS measured” for short): 18% for the first, 20% for the second.

First: COc1ccc2c(c1)CCC(Cc1cc[n+](Cc3ccccc3C)cc1C(C)=O)C2=O.[Br-] (stereo not shown) [Compound 121, 2-[[3-acetyl-1-(o-tolylmethyl)pyridin-1-ium-4-yl]methyl]-6-methoxy-tetralin-1-one bromide]
Second: COc1ccc2c(c1)CCC(Cc1cc[n+](Cc3ccccc3F)cc1C(C)=O)C2=O.[Br-] (stereo not shown) [Compound 127, 2-[[3-acetyl-1-[(2-fluorophenyl)methyl]pyridin-1-ium-4-yl]methyl]-6-methoxy-tetralin-1-one bromide]
The “Binding to the PAS measured” value of the first is higher: 24% for the first, 21% for the second.

First: COc1ccc2c(c1)CCC(CC1C=CN(Cc3ccccc3Cl)C=C1C(C)=O)C2=O (stereo not shown) [Compound 157, 2-[[3-acetyl-1-[(2-chlorphenyl)methyl]-4H-pyridin-4-yl]methyl]-6-methoxy-tetralin-1-one]
Second: COc1ccc2c(c1)CCC(CC1C=CN(Cc3cccc(F)c3)C=C1C(C)=O)C2=O (stereo not shown) [Compound 156, 2-[[3-acetyl-1-[(3-fluorophenyl)methyl]-4H-pyridin-4-yl]methyl]-6-methoxy-tetralin-1-one]
The “Binding to the PAS measured” value of the first is lower: 15% for the first, 26% for the second.

Compared with `COc1ccc2c(c1)CCC(Cc1cc[n+](Cc3cccc(Cl)c3)cc1C(C)=O)C2=O.[Br-]` (stereo not shown) [Compound 122, 2-[[3-acetyl-1-[(3-chlorophenyl)methyl]pyridin-1-ium-4-yl]methyl]-6-methoxy-tetralin-1-one bromide], `COc1ccc2c(c1)CCC(Cc1cc[n+](Cc3cccc(F)c3)cc1C(C)=O)C2=O.[Br-]` (stereo not shown) [Compound 128, 2-[[3-acetyl-1-[(3-fluorophenyl)methyl]pyridin-1-ium-4-yl]methyl]-6-methoxy-tetralin-1-one bromide] is higher in “Binding to the PAS measured” value: 20% for the first, 23% for the second.

Compared with `COc1cc2c(cc1OC)C(=O)C(Cc1cc[n+](Cc3ccccc3)cc1Br)C2.[Br-]` (stereo not shown) [Compound 145, 2-[(1-benzyl-3-bromo-pyridin-1-ium-4-yl)methyl]-5,6-dimethoxy-indan-1-one bromide], `COc1cc2c(cc1OC)C(=O)C(Cc1cc[n+](Cc3cccc(C)c3)cc1Br)C2.[Br-]` (stereo not shown) [Compound 146, 2-[[3-bromo-1-(m-tolylmethyl)pyridin-1-ium-4-yl]methyl]-5,6-dimethoxy-indan-1-one bromide] is higher in “Binding to the PAS measured” value: 16% for the first, 18% for the second.

`COc1cc2c(cc1OC)C(=O)C(CC1C=CN(Cc3ccccc3)C=C1C(C)=O)CC2` (stereo not shown) [Compound 162, 2-[(3-acetyl-1-benzyl-4H-pyridin-4-yl)methyl]-6,7-dimethoxy-tetralin-1-one] and `COc1cc2c(cc1OC)C(=O)C(Cc1cc[n+](Cc3cccc(Cl)c3)cc1C(C)=O)C2.[Br-]` (stereo not shown) [Compound 144, 2-[[3-acetyl-1-[(3-chlorophenyl)methyl]pyridin-1-ium-4-yl]methyl]-5,6-dimethoxy-indan-1-one bromide] are the same in “Binding to the PAS measured” value: 16% for the first, 16% for the second.

With `COc1ccc2c(c1)CCC(Cc1cc[n+](Cc3ccccc3Cl)cc1C(C)=O)C2=O.[Br-]` (stereo not shown) [Compound 126, 2-[[3-acetyl-1-[(2-chlorophenyl)methyl]pyridin-1-ium-4-yl]methyl]-6-methoxy-tetralin-1-one bromide] the “Binding to the PAS measured” value was 22%.
